Data set [1] has as its target Carbonic anhydrase 1 (Homo sapiens) (UniProt P00915). Nature of the data set: Activation of human recombinant CA1 by stopped flow CO2 hydrase method.
In data set [2] the target is Carbonic anhydrase 2 (Homo sapiens) (UniProt P00918). Nature of the data set: Activation of human recombinant CA2 by stopped flow CO2 hydrase method.
Data set [3] deals with Carbonic anhydrase 6 (Homo sapiens) (UniProt P23280). Nature of the data set: Activation of human recombinant CA6 by stopped flow CO2 hydrase method.
Data set [4] concerns N[C@H](Cc1ccccc1)C(=O)O. The note with it: Homo sapiens; 10 uM.

The chains behind the UniProt entries cited, without tags or fusion partners. Where a name states a change or a piece, a line headed by the entry shows the natural chain unless it says otherwise.
UniProt P00915: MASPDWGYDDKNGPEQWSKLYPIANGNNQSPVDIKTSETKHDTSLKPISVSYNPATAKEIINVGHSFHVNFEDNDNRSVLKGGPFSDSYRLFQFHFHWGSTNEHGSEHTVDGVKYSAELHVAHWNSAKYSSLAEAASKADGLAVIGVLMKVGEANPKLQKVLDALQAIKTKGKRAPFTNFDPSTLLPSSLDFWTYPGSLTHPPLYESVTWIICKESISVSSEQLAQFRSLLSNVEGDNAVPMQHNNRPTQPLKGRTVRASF
UniProt P23280: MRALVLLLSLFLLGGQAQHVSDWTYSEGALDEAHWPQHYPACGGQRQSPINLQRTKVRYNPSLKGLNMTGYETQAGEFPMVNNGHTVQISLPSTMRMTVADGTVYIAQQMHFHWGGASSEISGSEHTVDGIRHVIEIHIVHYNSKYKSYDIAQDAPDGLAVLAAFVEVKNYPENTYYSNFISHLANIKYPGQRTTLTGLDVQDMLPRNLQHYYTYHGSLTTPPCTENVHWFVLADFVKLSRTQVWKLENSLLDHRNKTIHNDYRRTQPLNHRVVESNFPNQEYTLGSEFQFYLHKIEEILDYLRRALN

For the compound `N[C@@H](Cc1ccccc1)C(=O)O`, the Ka in data set [1] is 0.07 µM; in data set [2], 0.013 µM; in data set [3], 1.23 µM.

The kcat is the number of substrate molecules converted per active site and unit of time at saturation. Consider “Carbonic anhydrase 1 (Homo sapiens), P00915”, for which the kcat in data set [4] was 2.3 10^5/s.

As for `N[C@H](Cc1ccccc1)C(=O)O`, the Ka in data set [1] is 86 µM; in data set [2], 0.035 µM; in data set [3], 16 µM.

The values are drawn from ChEMBL document CHEMBL1139982, “Carbonic anhydrase activators: the first activation study of the human secretory isoform VI with amino acids and amines” (Bioorg Med Chem, 2007).
